Experimental findings from PubChem BioAssay AID1259354 are described below.

By UniProt entry, the sequences of proteins in these tests, tags left out.
UniProt Q01638, whole entry: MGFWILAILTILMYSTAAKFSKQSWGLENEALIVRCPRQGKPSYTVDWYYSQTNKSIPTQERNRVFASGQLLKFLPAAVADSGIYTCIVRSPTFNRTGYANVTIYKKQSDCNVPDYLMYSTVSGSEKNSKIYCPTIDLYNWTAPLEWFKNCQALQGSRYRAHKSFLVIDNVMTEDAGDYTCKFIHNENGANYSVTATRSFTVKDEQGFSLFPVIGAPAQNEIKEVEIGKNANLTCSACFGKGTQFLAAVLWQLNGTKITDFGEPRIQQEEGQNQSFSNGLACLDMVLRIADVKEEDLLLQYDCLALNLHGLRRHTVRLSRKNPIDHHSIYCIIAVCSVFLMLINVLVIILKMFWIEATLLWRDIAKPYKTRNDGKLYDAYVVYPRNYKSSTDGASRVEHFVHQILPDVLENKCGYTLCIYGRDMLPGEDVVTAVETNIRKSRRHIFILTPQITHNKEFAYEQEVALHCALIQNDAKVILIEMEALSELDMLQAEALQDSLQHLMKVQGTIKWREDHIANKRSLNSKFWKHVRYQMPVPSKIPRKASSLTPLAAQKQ
UniProt O95760, whole entry partner: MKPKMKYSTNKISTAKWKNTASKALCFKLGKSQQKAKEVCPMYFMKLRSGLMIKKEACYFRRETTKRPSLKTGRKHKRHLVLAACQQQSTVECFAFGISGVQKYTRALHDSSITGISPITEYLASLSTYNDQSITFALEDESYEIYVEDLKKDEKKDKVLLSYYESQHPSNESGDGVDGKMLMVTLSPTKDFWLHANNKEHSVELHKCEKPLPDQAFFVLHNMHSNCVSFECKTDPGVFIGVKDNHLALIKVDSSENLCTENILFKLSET

Each structure is given as a SMILES string. This is a selection; strong and weak results do not stand in their true shares. Results filed as inconclusive are left out. The source made the active and inactive calls. Cut-off read from the data, not from the text of the source: active = inhibition above about 30%; inconclusive = mostly about 10% to 28%; inactive = weaker than that.

The target in this test is Interleukin-1 receptor-like 1 (Homo sapiens) (UniProt Q01638). In words: inhibitors of human ST2 (IL1RL1) binding to IL-33, primary screen, biochemical, AlphaLISA (AID 1259354). Conditions: AlphaLISA ST2-Fc/biotin-IL-33 interaction, 1 h; at 17 µM; stronger effect = higher value.
For `O=[N+]([O-])c1ccc(-n2ncc3c([N+](=O)[O-])cc([N+](=O)[O-])cc32)c([N+](=O)[O-])c1`, the inhibition was active: 61%.
For `O=[N+]([O-])c1cc([N+](=O)[O-])c(C=Nc2ccccc2)c([N+](=O)[O-])c1`, the inhibition is active: 47%.
